Values of other authors, collected in publication PMC7864917.

Target: RyR1 (UniProt P21817)
Settings: cited from earlier work

Substance: Calmodulin (apo) (from UniProt P0DP23)
- Kd: 30 nM
